In US9951014B2, “Mammalian and bacterial nitric oxide synthase inhibitors” (Northwestern University, priority 2014, dated 2018):

Tests used:
Assay in all cases: Oxyhemoglobin NO capture assay with purified NOS
Format in all cases: biochemical
human nNOS = human nNOS (Homo sapiens (Human), UniProt P29475); conditions: Table 9; read-out: Ki H nNOS
murine iNOS = murine iNOS (Mus musculus (Mouse), UniProt P29477)
bovine eNOS = bovine eNOS (Bos taurus (Bovine), UniProt P29473)
rat nNOS = rat nNOS (Rattus norvegicus (Rat), UniProt P29476); conditions: Table 9

| Compound | Ki (human nNOS) [nM] | i/n selectivity (murine iNOS) | e/n selectivity (bovine eNOS) | Ki (rat nNOS) [nM] |
| --- | --- | --- | --- | --- |
| CNCCN(C)c1cc(C#N)cc(CCc2cc(C)cc(N)n2)c1 [Compound 19c, 3-(2-(6-Amino-4-methylpyridin-2-yl)ethyl)-5-(methyl(2-(methylamino)ethyl)amino)benzonitrile] | 55 | 153 | 1040 |  |
| CNCCN(C)c1cncc(CCc2cc(C)cc(N)n2)c1 [Compound 14b, N^1-(5-(2-(6-Amino-4-methylpyridin-2-yl)ethyl)pyridin-3-yl)-N^1,N^2-dimethylethane-1,2-diamine] |  |  |  | 17 ± 1.6 |
| CNCCN(C)c1cc(F)cc(CCc2cc(C)cc(N)n2)c1 [Compound 19b, N^1-(3-(2-(6-Amino-4-methylpyridin-2-yl)ethyl)-5-fluorophenyl)-N^1,N^2-dimethylethane-1,2-diamine] |  | 166 | 903 |  |
